The values below are quoted from earlier work in PMC12596218 (Journal of Lipid Research, 2025).

The structures appear in SMILES notation.

The series concerns mAsbt. As to conditions: read-out: Km of [14C]TC transport via mAsbt; substrate concentrations 5-40 μM; tested as the radiolabelled form; cited from earlier work.

In general, Km refers to the concentration of substrate that gives half-maximal velocity. For `C[C@H](CCC(=O)NCCS(=O)(=O)O)[C@H]1CC[C@H]2[C@@H]3[C@H](O)C[C@@H]4C[C@H](O)CC[C@]4(C)[C@H]3C[C@H](O)[C@]12C`, the Km is 4.3 µM.
